Measurements reported in patent US11912794B2, “Modulation of structured polypeptide specificity” (BicycleRD Limited, priority 2011, dated 2024).

How the values were obtained:
Type in all cases: biochemical
Human factor XIIa = target: T1, Human factor XIIa (Homo sapiens, UniProt P00748); assay: Target specificity, paralogous protease; details: Table 4; measure and unit inferred
T1 sequence (P00748 373-615 limits assumed): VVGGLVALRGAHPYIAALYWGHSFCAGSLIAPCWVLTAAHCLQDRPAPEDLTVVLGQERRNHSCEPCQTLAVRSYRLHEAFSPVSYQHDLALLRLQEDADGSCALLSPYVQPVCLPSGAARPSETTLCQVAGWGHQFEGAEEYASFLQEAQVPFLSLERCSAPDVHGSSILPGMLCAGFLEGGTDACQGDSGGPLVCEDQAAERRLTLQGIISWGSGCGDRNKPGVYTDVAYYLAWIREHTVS

Human thrombin = Human thrombin (Homo sapiens, UniProt P00734); assay: Target specificity, paralogous protease; details: Tables 3 and 4; unit inferred
human plasma Kallikrein = target: T2, human plasma Kallikrein (Homo sapiens, UniProt P03952); assay: Functional enzyme inhibition assay, fluorogenic substrate Z-PheArg-AMC; details: Tables 3 and 4; read-out: Kallikrein Av Ki
T2 construct: purchased Stratech, UK
Procedure: Peptides were dissolved as the TFA-salts in their powder form, and stock solutions were usually prepared in water. All solutions were centrifuged and filtered ([…] syringe filters) prior absorption measurement at 280 nm. […] For peptides containing non-natural amino acids with suspected chromophoric properties (i.e. NorHar, 4PhenylPro, 3PaI, 4PaI, Tic, 4GuanPhe, 4,4-BPAI, 3,3-DPA, 1NAI, 2NAI, 4BenzylPro, Ind) concentrations were determined by weighing the powder and dissolving the peptide in a defined quantity of water.

| Sequence | IC50 (Human factor XIIa) [µM] | IC50 (Human thrombin) [µM] | Ki (human plasma Kallikrein) [µM] |
| --- | --- | --- | --- |
| ACAWPARCLTTSLCG [Peptide 1E6] | > 10 | > 10 | – |
| ACAWPARCLTVDLCA [Peptide 06-01] | > 10 | > 10 | – |
| ACFPSHDCDGRRMCA [Peptide 06-143] | > 10 | > 10 | – |
| ACGGPQNCRTWTTCA [Peptide 06-56] | > 10 | > 10 | – |
| ACRWPARCVHQDLCA [Peptide 06-34] | > 10 | > 10 | < 0.0003 |
